“Also recorded” adds a separate entry of the source.

The subject of assay [1] is phosphorylation of AKT (Serina 473) and S6 (240-244). Put plainly: Immunoblotting of AKT and S6 phosphorylation in JIMT-1 tumour masses. In kind it is in vivo, athymic nude mice. Particulars: JIMT-1 tumours collected 4 hours after third and last dose of MEN1611. The procedure:
FIG. 2: the antitumour activity of MEN1611 is supported even by its pharmacodynamic activity, by means of the assay of immunoblotting, wherein the phosphorylation of two proteins AKT and S6, proteins downstream of PI3K, was evaluated. […] The analysed tumour masses were collected 4 hours after the third and last dose of MEN1611.
Moreover, the activity of MEN1611 was even evaluated by means of its capability of inhibiting phosphorylation of two proteins downstream of the cascade of PI3K, AKT (Serina 473) signal and the S6 (240-244) factor, in the tumour masses of mice belonging to each group, collected after 4 hours of the third dose and last dose of MEN1611.
The samples were analysed by immunoblotting with antibodies directed against phospohylated akt (pS473-Akt), total Akt, phosphorylation of S6 (240/244), and total S6 (FIG. 2).
On the technique in general: Immunoblotting shows a protein as a band on a membrane.

In assay [2] the test system is phosphorylation of AKT and S6. The assay can be described thus: Immunoblotting of AKT and S6 phosphorylation in HCC1954 tumour masses. It is filed as in vivo, athymic nude mice. Particulars: HCC1954 tumours collected 4 hours after third and last dose of MEN1611. The procedure:
FIG. 4: The antitumour activity of MEN1611 is supported even by its pharmacodynamic activity, by means of the assay of immunoblotting, wherein the phosphorylation of two proteins AKT and S6, proteins downstream of PI3K, was evaluated. […] The analysed tumour masses were collected 4 hours after the third and last dose of MEN1611.
The samples were analysed by immunoblotting with antibodies directed against phosporylated akt (pS473-Akt), total Akt, phosphorylation S6 (240/244), and total S6.

As for “trastuzumab: monoclonal antibody directed against the HER2 receptor [reference compound]”, the “phosphorylation of AKT and S6 in tumour masses (immunoblotting)” value in assay [1] was “not inhibited; also recorded: did not change”; in assay [2], “not inhibited”.

The values above are taken from patent US20210015826A1, “ANTICANCER PHARMACEUTICAL COMPOSITIONS FOR COMBINED THERAPY” (BERLIN-CHEMIE AG, priority 2018, published 2021).
